Molecules are shown by their SMILES.

The chains behind the UniProt entries cited, without tags or fusion partners. Where a name states a change or a piece, a line headed by the entry shows the natural chain unless it says otherwise.
UniProt Q8VIJ5: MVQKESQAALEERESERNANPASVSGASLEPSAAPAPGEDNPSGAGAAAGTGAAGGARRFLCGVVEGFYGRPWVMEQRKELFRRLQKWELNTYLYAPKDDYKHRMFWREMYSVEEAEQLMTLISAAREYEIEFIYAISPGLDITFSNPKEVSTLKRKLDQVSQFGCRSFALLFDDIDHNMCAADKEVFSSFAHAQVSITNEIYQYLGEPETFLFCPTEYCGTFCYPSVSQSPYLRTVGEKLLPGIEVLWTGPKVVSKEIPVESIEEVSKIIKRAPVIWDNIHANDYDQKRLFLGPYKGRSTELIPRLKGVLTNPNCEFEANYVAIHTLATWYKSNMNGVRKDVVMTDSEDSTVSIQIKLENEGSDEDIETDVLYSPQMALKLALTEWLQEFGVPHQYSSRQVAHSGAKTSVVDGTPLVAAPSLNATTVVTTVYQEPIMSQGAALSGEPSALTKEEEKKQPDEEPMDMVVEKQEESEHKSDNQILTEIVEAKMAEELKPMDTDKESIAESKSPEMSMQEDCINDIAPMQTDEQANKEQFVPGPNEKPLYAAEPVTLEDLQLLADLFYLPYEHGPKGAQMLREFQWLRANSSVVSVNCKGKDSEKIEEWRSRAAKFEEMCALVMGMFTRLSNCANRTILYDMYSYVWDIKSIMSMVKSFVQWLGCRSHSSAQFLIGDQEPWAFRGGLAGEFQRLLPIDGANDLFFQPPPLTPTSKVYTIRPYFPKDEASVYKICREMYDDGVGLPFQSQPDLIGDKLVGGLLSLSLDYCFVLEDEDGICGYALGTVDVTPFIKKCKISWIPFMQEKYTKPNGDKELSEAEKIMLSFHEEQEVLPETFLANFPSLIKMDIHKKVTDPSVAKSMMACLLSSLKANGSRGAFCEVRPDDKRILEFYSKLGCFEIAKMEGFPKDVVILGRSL
UniProt O60502: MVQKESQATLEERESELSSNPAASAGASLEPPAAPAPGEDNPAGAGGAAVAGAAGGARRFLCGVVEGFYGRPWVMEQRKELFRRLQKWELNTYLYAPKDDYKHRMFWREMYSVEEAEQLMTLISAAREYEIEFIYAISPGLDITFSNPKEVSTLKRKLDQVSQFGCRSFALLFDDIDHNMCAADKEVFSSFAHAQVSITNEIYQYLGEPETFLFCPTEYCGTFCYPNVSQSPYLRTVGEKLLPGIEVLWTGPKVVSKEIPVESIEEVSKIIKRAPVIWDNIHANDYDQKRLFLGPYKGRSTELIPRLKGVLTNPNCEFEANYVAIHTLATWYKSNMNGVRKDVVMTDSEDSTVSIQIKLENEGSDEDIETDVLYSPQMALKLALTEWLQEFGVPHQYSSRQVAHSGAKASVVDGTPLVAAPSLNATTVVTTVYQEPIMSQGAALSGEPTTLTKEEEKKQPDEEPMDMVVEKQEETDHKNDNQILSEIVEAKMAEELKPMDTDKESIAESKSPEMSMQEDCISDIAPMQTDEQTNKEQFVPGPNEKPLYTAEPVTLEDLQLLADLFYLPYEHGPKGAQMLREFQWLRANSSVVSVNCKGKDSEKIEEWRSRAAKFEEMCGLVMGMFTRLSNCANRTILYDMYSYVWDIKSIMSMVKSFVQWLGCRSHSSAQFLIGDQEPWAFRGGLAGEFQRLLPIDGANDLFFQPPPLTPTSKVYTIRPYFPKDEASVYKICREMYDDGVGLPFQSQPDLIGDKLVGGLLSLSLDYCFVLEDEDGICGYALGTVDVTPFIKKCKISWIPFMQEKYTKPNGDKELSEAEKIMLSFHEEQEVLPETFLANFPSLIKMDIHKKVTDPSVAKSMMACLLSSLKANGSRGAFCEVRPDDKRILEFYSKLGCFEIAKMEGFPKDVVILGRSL

One assay addresses O-GlcNAcase (Rattus norvegicus (Rat), UniProt Q8VIJ5). The experiment in a line: Cell-based ELISA for cellular activity of O-GlcNAcase inhibitors (O-GlcNAcylated protein, RL-2 antibody). The settings on record: rat PC-12 cells, 24 h treatment, O-GlcNAcylated protein by RL-2 ELISA. From the text:
Inhibition of O-GlcNAcase, which removes O-GlcNAc from cellular proteins, results in an increase in the level of O-GlcNAcylated protein in cells. An increase in O-GlcNAcylated protein can be measured by an antibody, such as RL-2, that binds to O-GlcNAcylated protein. The amount of O-GlcNAcylated protein:RL2 antibody interaction can be measured by enzyme linked immunosorbant assay (ELISA) procedures.
A variety of tissue culture cell lines, expressing endogenous levels of O-GlcNAcase, can be utilized; examples include rat PC-12, and human U-87, or SK-N-SH cells. In this assay, rat PC-12 cells were plated in 96-well plates with approximately 10,000 cells/well. […] If desired, the total protein concentration of samples was determined using 20 μL of the sample using the BCA method.
The ELISA portion of the assay was performed in a black Maxisorp 96-well plate that was coated overnight at 4° C. with 100 μL/well of the cell lysate (1:10 dilution of the lysate with PBS containing protease inhibitors, phosphatase inhibitors, and PMSF). […] The detection reaction was incubated for 15 minutes at room temperature and then read with excitation at 530 nm and emission at 590 nm.
The amount of O-GlcNAcylated protein, as detected by the ELISA assay, was plotted for each concentration of test compound using standard curve fitting algorithms for sigmoidal dose response curves. […]
(In general: An ELISA detects its analyte on a solid surface through an enzyme-linked reagent.)

For a further assay, the target named is human O-GlcNAcase (Homo sapiens (Human), UniProt O60502). The experiment in a line: Assay for determination of KI values for inhibition of O-GlcNAcase activity (fluorescence-based hOGA). The following applies: purified human O-GlcNAcase, 4-Methylumbelliferyl N-acetyl-β-D-glucosaminide substrate, pH 7.0, Cheng-Prusoff. It is filed as biochemical. On the procedure: Experimental Procedure for Kinetic Analyses: Enzymatic reactions were carried out in a reaction containing 50 mM NaH2PO4, 100 mM NaCl and 0.1% BSA (pH 7.0) using 2 mM 4-Methylumbelliferyl N-acetyl-β-D-glucosaminide dihydrate (Sigma M2133) dissolved in ddH2O, as a substrate. The amount of purified human O-GlcNAcase enzyme used in the reaction was 0.7 nM. Test compound of varying concentrations was added to the enzyme prior to initiation of the reaction. The reaction was performed at room temperature in a 96-well plate and was initiated with the addition of substrate. The production of fluorescent product was measured every 60 sec for 45 min with a Tecan Infinite M200 plate-reader with excitation at 355 nm and emission detected at […], with 4-Methylumbelliferone (Sigma M1381) used to produce a standard curve. The slope of product production was determined for each concentration of compound tested and plotted, using standard curve fitting algorithms for sigmoidal dose response curves. The values for a four parameter logistic curve fit of the data were determined.

In general, EC50 refers to the midpoint of the concentration-response curve. A high value points to a less potent agent. As a reminder, the Ki is a measure of affinity in units of concentration, obtained from inhibition or displacement. High values mean a looser hold on the target, low ones a stronger hold on the target. Regarding `CNC1=N[C@@H]2[C@@H](O)[C@H](O)[C@@H](CF)C[C@@H]2O1` [Example 2, (3aR,4R,5R,6S,7aS)-6-(fluoromethyl)-2-(methylamino)-3a,4,5,6,7,7a-hexahydrobenzo[d]oxazole-4,5-diol], the EC50 on O-GlcNAcase was determined as 8.8 nM. Further, the affinity at human O-GlcNAcase corresponds to a Ki of 3 nM.

The record behind these values is US9199949B2, “Selective glycosidase inhibitors and uses thereof” (Alectos Therapeutics Inc., priority 2011, dated 2015).
